This is an account of results in article PMC12845078 (Pharmaceuticals, 2025).

This data set is described as follows: Pharmacokinetics of MT and CBD in rats after pre-administration of ABT. The settings on record: ABT-model rats, MT + CBD (5 + 20) mg/kg vs MT 5 mg/kg.

In the case of `COc1ccc2[nH]cc(CCNC(C)=O)c2c1` [MT, Melatonin], the “decrease in AUC(0–t) of MT with CBD vs MT alone” value is “approximately 43%” and the “decrease in Cmax of MT with CBD vs MT alone” value is reported as “approximately 43%”.
